Test results reported in US20140045883A1, “ACK1 KINASE INHIBITION TO TREAT TRIPLE NEGATIVE BREAST CANCER” (H. Lee Moffitt Cancer Center and Research Institute, Inc., priority 2012, published 2014).

By UniProt entry, the sequences of proteins in these tests, tags left out. Where a name states a change or a piece, a line headed by the entry shows the natural chain unless it says otherwise.
UniProt Q07912: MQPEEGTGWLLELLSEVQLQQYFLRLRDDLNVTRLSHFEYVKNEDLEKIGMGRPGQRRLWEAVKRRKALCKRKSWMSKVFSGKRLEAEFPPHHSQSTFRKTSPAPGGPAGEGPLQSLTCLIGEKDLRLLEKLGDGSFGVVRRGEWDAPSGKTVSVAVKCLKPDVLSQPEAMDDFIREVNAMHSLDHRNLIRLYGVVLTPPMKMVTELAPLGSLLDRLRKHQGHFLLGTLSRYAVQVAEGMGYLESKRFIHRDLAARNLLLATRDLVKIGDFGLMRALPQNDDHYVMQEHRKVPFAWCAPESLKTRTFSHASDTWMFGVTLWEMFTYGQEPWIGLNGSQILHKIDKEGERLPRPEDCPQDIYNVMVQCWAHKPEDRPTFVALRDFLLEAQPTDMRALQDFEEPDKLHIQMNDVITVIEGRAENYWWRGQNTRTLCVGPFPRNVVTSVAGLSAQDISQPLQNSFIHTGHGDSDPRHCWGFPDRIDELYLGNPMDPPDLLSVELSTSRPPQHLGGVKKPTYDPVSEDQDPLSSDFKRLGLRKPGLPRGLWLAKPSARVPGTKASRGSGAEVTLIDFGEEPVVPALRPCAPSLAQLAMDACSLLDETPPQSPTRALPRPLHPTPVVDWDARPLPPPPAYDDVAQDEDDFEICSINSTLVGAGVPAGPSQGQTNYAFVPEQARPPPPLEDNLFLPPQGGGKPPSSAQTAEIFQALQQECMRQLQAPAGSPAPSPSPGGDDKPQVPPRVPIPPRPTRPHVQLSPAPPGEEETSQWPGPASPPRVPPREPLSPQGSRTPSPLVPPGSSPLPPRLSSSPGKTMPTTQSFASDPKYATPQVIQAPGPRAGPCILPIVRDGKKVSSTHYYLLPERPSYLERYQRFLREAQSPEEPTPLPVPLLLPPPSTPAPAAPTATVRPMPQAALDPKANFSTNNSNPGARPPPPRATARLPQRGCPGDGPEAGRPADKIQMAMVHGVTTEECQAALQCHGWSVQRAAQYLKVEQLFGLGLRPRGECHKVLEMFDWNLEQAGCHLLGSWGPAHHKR

Target: purified Ack1 kinase (Homo sapiens, UniProt Q07912)
Settings: inhibitor 50 nM, Ack1 50 nM, 5 uM ATP, 1 hour

Compound: CCCS(=O)(=O)Nc1ccc(F)c(C(=O)c2c[nH]c3ncc(-c4ccc(Cl)cc4)cc23)c1F [PLX4032, Vemurafenib]
- AKT Tyr176-phosphorylation (ELISA): significant decrease
